One compound from PMC4030833 (Journal of Medicinal Chemistry, 2014) can be followed below.

Sequences of proteins named here, by UniProt entry; tags and fusion partners are left off. A change or cut given only in a name is not applied to a line headed by its entry.
UniProt O15379: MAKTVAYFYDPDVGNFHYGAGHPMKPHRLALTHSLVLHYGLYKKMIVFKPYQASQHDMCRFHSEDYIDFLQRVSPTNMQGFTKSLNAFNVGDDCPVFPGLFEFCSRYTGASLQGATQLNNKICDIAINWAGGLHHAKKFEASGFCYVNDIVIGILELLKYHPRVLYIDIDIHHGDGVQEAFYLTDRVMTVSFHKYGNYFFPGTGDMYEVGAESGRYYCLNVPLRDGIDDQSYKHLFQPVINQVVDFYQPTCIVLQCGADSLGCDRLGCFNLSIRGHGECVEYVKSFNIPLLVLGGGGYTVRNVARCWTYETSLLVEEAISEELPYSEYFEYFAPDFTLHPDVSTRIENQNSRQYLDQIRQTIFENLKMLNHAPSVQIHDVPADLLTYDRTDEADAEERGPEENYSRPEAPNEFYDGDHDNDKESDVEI

The target in the test is HDAC3 (Homo sapiens, UniProt O15379). Kind of test: In vitro HDACs inhibition fluorescence assay, HDAC3. It counts as biochemical.

On to `O=C(/C=C/c1ccc(OC[C@H](Cc2c[nH]c3ccccc23)NC(=O)c2ccc(Cl)cc2)cc1)NO` [11r, (S,E)-4-Chloro-N-(1-(4-(3-(hydroxyamino)-3-oxoprop-1-en-1-yl)phenoxy)-3-(1H-indol-3-yl)propan-2-yl)benzamide], for which the “IC50 against HDAC3 lower than that of HDAC2” value is about 130 fold and the “IC50 against HDAC3 lower than that of HDAC6” value is recorded as about 80 fold.
